{"source": "ChEMBL document CHEMBL1287717", "about": "“Design and synthesis of macrocyclic indoles targeting blood coagulation cascade Factor XIa” (Bioorg Med Chem Lett, 2010)", "molecular_target": "Prothrombin (Homo sapiens, UniProt P00734)", "assay": "Inhibition of factor 2a", "data": [{"smiles": "O=C1COc2ccc(Cl)cc2CNC(=O)[C@@H]2CCCN2C(=O)[C@@H](C2CCCCC2)NC(=O)CCN1", "values": [{"measurement": "Ki", "result": 1.3, "unit": "nM"}]}]}
